In article PMC6776900, “PPM1G forms a PPP‐type phosphatase holoenzyme with B56δ that maintains adherens junction integrity” (EMBO Reports, 2019):

Tests used:
GST-B56δ = target: T1, GST-B56δ (human, UniProt Q14738); assay: BLI; Octet Red 96; His-tagged PPM1G or PPP2R1A immobilised on Ni-NTA biosensors, GST-B56δ proteins in solution (100–400 nm); 50 mM Tris pH 7.5, 300 mM NaCl, 0.01% NP-40 Igepal, 1 mM DTT; 25 °C; details: both partners purified
T1 construct: PP2A regulatory subunit B56δ (PPP2R5D), human cDNA, full-length protein; also called GST-B56δ wild type (WT); GST-tagged B56δ; source: E. coli BL21 (DE3), purified (glutathione Sepharose)

GST-B56δ Δ91–102 = target: T2, GST-B56δ Δ91–102 (human, UniProt Q14738, Δ91–102); assay: pull-down; GST-tagged bait on glutathione Sepharose beads incubated with MBP-tagged prey for 1 h at 4°C, detection with MBP antibody; details: both partners purified
T2 construct: source: E. coli BL21 (DE3), purified (glutathione Sepharose)

| Kd (GST-B56δ) [nM] | binding result (GST-B56δ Δ91–102) | Binder |
| --- | --- | --- |
| 3.6 | – | 6xHis-tagged PPP2R1A (natural protein, PPP2R1A, scaffold (A) subunit of PP2A; source: recombinant) not shown |
| – | binds | MBP-PPP2R1A (natural protein, PPP2R1A, scaffold (A) subunit of PP2A, full-length protein; source: E. coli BL21 (DE3), purified) not shown |
